Laboratory results from patent US4801610A, “Phenolic ester derivatives as elastase inhibitors” (G. D. Searle & Co., priority 1987, dated 1989).

Target: T1, Human Leukocyte Elastase (HLE) (Homo sapiens, UniProt P08246)
T1 sequence (P08246 30-247 limits assumed): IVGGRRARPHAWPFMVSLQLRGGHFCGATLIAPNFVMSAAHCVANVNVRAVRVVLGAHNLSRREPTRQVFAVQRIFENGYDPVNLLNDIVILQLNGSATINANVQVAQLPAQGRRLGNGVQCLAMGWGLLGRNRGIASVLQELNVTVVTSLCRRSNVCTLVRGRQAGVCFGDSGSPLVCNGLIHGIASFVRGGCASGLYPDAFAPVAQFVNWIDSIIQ
Experiment: Inhibition of Human Leukocyte Elastase (HLE), hydrolysis of Methoxysuccinyl-Ala-Ala-Pro-Val-nitroanilide
Type: biochemical
Conditions: tris-HCl buffer pH 8.0, absorption at 410 nm, read-out: Inhibition of Elastase IC50, [Molar]
Description: Several biochemical and animal model tests can be used to examine the ability of the derivatives of the invention to prevent or alleviate the harmful biological action of elastase. The biochemical assays permit direct measurement of drug controlled inhibition of elastase fragmentation of proteins. […] In these tests, protease reaction with the substrate is measured in the presence and absence of the drug to be tested. Inhibition of protease action is indicated by a decrease in the amount of substrated fragmented. The basic parameters for such biochemical assays have been reported in the literature: J. Biol. Chem., 255, 5435 (1980); Biochem. Biophys Acta., 268, 257 (1973); Anal. Biochem. 48,9 (1972); and Biochemistry, 20, 3675 (1981). EXAMPLE 42 Inhibition of Human Leukocyte Elastase (HLE) This test measures the rate of hydrolysis of Methoxysuccinyl-[…]-nitroanilide by HLE in the presence and absence of the compound to be tested. The procedure used is as follows. The following stock solutions are prepared: […] 2. a dimethylsulfoxide solution of the nitroanilide peptide (2 m mole), 3. tris-HCl buffer (0.2M,pH 8.0) and […] […] The cuvette was capped, slightly shaken and placed in the light chamber of a recording colorimeter where the increase in absorption at 410 nm. due to liberated nitroaniline was measured. […]

CC(C)(C)C(=O)Oc1ccc(S(=O)(=O)c2ccc(OC(=O)C(C)(C)C)cc2)cc1 [Example 17a, 4,4'-dipivaloyloxy-diphenylsulfone]
IC50: 83 nM
